Membrane permeability of cyclic peptides

PAMPA measures passive passage through an artificial lipid membrane. Values are log10 P with P in cm/s, so -5 is more permeable than -7.

compound | PAMPA (log10 cm/s)
CC(C)C[C@@H]1NC(=O)[C@@H](CC(C)C)NC(=O)[C@H](C)NC(=O)[C@@H]2CCCN2C(=O)[C@H](Cc2ccccc2)NC(=O)CN(Cc2ccccc2)C(=O)[C@@H]2CCCN2C1=O | -5.58
CC(C)C[C@@H]1NC(=O)[C@@H](CC(C)C)NC(=O)[C@@H](C)N(C)C(=O)[C@H]2CCCN2C(=O)[C@H](Cc2ccccc2)NC(=O)[C@H](CC(C)C)N(C)C(=O)[C@@H]2CCCN2C1=O | -5.32
CC(C)C[C@H]1NC(=O)[C@@H](C)N(C)C(=O)[C@H](Cc2ccccc2)NC(=O)[C@H](CC(C)C)N(C)C(=O)[C@@H]2CCCN2C(=O)C[C@H](Cc2ccccc2)NC1=O | -5.51
CCCN1CC(=O)N[C@H](CC(C)C)C(=O)N(Cc2ccccc2)CC(=O)N2CCC[C@@H]2C(=O)N(C)[C@H](CC(C)C)C(=O)N[C@@H](Cc2ccccc2)C1=O | -5.35
CCCN1CC(=O)N(C)[C@@H](CC(C)C)C(=O)N[C@H](CC(C)C)C(=O)N2CCC[C@@H]2C(=O)N(C)[C@H](CC(C)C)C(=O)N[C@@H](Cc2ccccc2)C(=O)N2CCC[C@@H]2C1=O | -5.32
CC(C)C[C@@H]1C(=O)N[C@H](CC(C)C)C(=O)N2CCC[C@H]2C(=O)N(C)[C@H](CC(C)C)C(=O)N[C@@H](Cc2ccccc2)C(=O)N2CCC[C@H]2C(=O)N(C)[C@@H](C)C(=O)N1C | -5.05
CCCN1CC(=O)N[C@@H](CC(C)C)C(=O)N[C@H](CC(C)C)C(=O)N2CCC[C@@H]2C(=O)N(C)[C@H](CC(C)C)C(=O)N[C@@H](Cc2ccccc2)C(=O)N2CCC[C@H]2C1=O | -5.37
CC(C)C[C@H]1NC(=O)[C@H](CC(C)C)N(C)C(=O)[C@H](C)NC(=O)[C@@H]2CCCN2C(=O)[C@H](Cc2ccccc2)NC(=O)[C@H](CC(C)C)N(C)C(=O)[C@@H]2CCCN2C1=O | -5.58
CC(C)C[C@@H]1NC(=O)[C@@H]2CCCN2C(=O)CN(Cc2ccccc2)C(=O)[C@H](CC(C)C)NC(=O)[C@H](C)N(C)C(=O)[C@@H]2CCCN2C(=O)[C@H](Cc2ccccc2)NC1=O | -6.28
CC(C)C[C@@H]1NC(=O)[C@@H](CC(C)C)N(C)C(=O)[C@H](C)NC(=O)[C@H]2CCCN2C(=O)[C@H](Cc2ccccc2)NC(=O)[C@@H](CC(C)C)N(C)C(=O)[C@H]2CCCN2C1=O | -4.92
CCCN1CC(=O)N[C@@H](CC(C)C)C(=O)N(C)[C@@H](CC(C)C)C(=O)N2CCC[C@@H]2C(=O)N(Cc2ccccc2)CC(=O)N[C@@H](Cc2ccccc2)C(=O)N2CCC[C@@H]2C1=O | -5.14
CC(C)C[C@H]1NC(=O)[C@@H](C)N(C)C(=O)[C@H]2CCCN2C(=O)[C@H](Cc2ccccc2)NC(=O)CN(Cc2ccccc2)C(=O)[C@@H]2CCCN2C(=O)CN(Cc2ccccc2)C1=O | -6.11
CC(C)C[C@@H]1NC(=O)[C@@H]2CCCN2C(=O)[C@@H](CC(C)C)NC(=O)[C@@H](CC(C)C)N(C)C(=O)[C@H](C)N(C)C(=O)[C@H](Cc2ccccc2)NC1=O | -6.01
CC(C)C[C@H]1C(=O)N[C@@H](Cc2ccccc2)C(=O)N2CCC[C@H]2C(=O)N[C@H](C)C(=O)N(Cc2ccccc2)CC(=O)N[C@@H](Cc2ccccc2)CC(=O)N2CCC[C@H]2C(=O)N1C | -5.32
CC(C)C[C@@H]1C(=O)N(C)[C@@H](CC(C)C)C(=O)N2CCC[C@@H]2C(=O)N(Cc2ccccc2)CC(=O)N[C@@H](Cc2ccccc2)C(=O)N2CCC[C@@H]2C(=O)N[C@H](C)C(=O)N1C | -5.64
CC(C)C[C@@H]1NC(=O)[C@@H](C)N(C)C(=O)[C@H](Cc2ccccc2)NC(=O)[C@H](CC(C)C)N(C)C(=O)[C@@H]2CCCN2C(=O)[C@H](CC(C)C)NC1=O | -5.40
CC(C)C[C@@H]1NC(=O)[C@H]2CCCN2C(=O)[C@@H](CC(C)C)N(C)C(=O)[C@@H](CC(C)C)N(C)C(=O)[C@@H](C)N(C)C(=O)[C@@H]2CCCN2C(=O)[C@H](Cc2ccccc2)NC1=O | -6.01

2 of these entries, quoted again:

compound | PAMPA (log10 cm/s)
CC(C)C[C@@H]1C(=O)N[C@H](CC(C)C)C(=O)N2CCC[C@H]2C(=O)N(C)[C@H](CC(C)C)C(=O)N[C@@H](Cc2ccccc2)C(=O)N2CCC[C@H]2C(=O)N(C)[C@@H](C)C(=O)N1C | -5.05
CC(C)C[C@H]1NC(=O)[C@@H](C)N(C)C(=O)[C@H](Cc2ccccc2)NC(=O)[C@H](CC(C)C)N(C)C(=O)[C@@H]2CCCN2C(=O)C[C@H](Cc2ccccc2)NC1=O | -5.51

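The data file gives no further conditions (lipid, pH, time, direction or concentration), and values from different papers need not be comparable. The list need not hold all peptides of the study. Entries at the database's floor value (log10 P of -10) are not listed.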

Collected by the curators of CycPeptMPDB (Li et al. 2023) from Townsend et al. 2020, doi:10.26434/chemrxiv.13335941.v1.